Literature values, collected in patent US10695347B2, “Pyrimidine derivative and use thereof” (Hubei Bio-Pharmaceutical Industrial Technological Institute …, priority 2015, dated 2020).

System: ALK-positive NSCLC
Settings: cited from earlier work
[1] = clinical trials, ALK-positive NSCLC

Compound: C[C@@H](Oc1cc(-c2cnn(C3CCNCC3)c2)cnc1N)c1c(Cl)ccc(F)c1Cl [Crizotinib]
- objective response rate [1]: around 60%
- survival without cancer progression [1]: about 10 months
- occurring rate of most common side effects (visual impairment, nausea, diarrhea, vomiting, edema, constipation) (two clinical trials): above 25%
